Experimental data as given in paper PMC11026475.

Test system: Nc1ncnc2c1ncn2[C@@H]1O[C@H](COP(=O)(O)OP(=O)(O)OP(=O)(O)O)[C@@H](O)[C@H]1O
Assay: purified protein
Conditions: Mg2+ (MgCl2), 100 mM HEPES, 20% glycerol, pH 7, 25 °C, 0-8 mM ATP, Hill coefficient 1.96

Substance: RtxB-NBD (Kingella kingae ATCC 23330)
- K0.5: 0.74 ± 0.02 mM
- Vmax: 227.0 ± 2.9 (s.d.)
